Test results from patent publication US10144746B2 (GLOBAL BLOOD THERAPEUTICS, INC., priority 2015, dated 2018).

Protein sequences, listed by entry. Tags and fused reporters are not part of them. Residues count along the entry.
UniProt P03952, 20-390 partner: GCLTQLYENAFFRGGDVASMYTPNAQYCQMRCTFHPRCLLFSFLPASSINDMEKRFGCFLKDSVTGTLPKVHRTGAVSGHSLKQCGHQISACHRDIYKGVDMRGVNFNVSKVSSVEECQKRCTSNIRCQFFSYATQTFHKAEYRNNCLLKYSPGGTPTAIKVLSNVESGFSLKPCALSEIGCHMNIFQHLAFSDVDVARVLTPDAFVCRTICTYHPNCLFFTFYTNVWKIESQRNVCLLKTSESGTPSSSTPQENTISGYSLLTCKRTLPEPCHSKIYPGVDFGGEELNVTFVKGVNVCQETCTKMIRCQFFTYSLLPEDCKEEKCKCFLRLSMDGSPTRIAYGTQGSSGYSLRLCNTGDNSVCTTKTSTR
UniProt P03952, 391-638: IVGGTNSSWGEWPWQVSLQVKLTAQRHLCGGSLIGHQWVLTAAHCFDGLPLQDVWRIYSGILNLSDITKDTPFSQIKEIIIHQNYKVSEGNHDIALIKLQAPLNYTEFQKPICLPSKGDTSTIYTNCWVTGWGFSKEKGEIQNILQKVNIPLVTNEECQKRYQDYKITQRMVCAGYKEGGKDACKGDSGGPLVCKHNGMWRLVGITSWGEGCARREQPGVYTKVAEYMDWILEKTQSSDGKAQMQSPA

Biological target: Human plasma kallikrein (Homo sapiens (Human), UniProt P03952)
Experiment: In vitro plasma kallikrein inhibition assay (chromogenic substrate D-Pro-Phe-Arg-pNa, absorbance at 405 nm, IC50 determination)
Assay type: biochemical
Experimental: In Vitro Plasma Kallikrein Inhibition Assay
The chromogenic substrate D-Pro-Phe-Arg-pNa, 2HCl (BIOPHEN CS-31(02) from Hyphen BioMed, Neuville-Sur-oise, France) was dissolved in 5 mL deionized water and stored at 4° C. […] All other chemicals were of analytical grade.
A stock solution of 7 μM in 50% glycerol was stored at −20° C.
Enzyme reactions were conducted in “assay buffer” comprised of 20 mM HEPES at pH 7.4, 150 mM NaCl, 0.1% PEG-8000 and 0.01% Triton X-100.
Both enzyme and substrate were diluted in assay buffer.
Plate measurements were conducted using a SPECTROStar Nano reader (BMG Labtech, San Francisco, Calif., USA). […] We used discrete wavelength, precise, kinetic reads of 15 cycles with a 60 sec cycle time.
Determination of IC50 values
The test compound was dissolved in 100% DMSO. The compounds were serially diluted in DMSO in a 7 point dose response. For the assays, 66.5 μL of protease solution (protease in assay buffer) was added per well followed by the addition of 8.5 μL of compound in 100% DMSO. […] After 30 min. incubation at room temperature on an orbital shaker, the reactions were started by the addition of 10 μL substrate solution (in assay buffer, final assay concentration was 600 uM). After the addition of the substrate solution the final DMSO concentration was 10%. The plate was placed again on the shaker for 5 sec, spun at 2000 rpm for 5 sec and read on the spectrophotometer. […] The IC50 value was calculated from the plot of rate vs. inhibitor concentration by a 4 parameter logistic equation: y=A+((B−A)/([…]))
where y is the rate at the inhibitor concentration, x. A is the minimum y value at the highest inhibitor concentration and B is the y value in the absence of inhibitor, C is the IC50 value and D is the slope factor. The curve fitting was conducted with the non-linear regression routine of the analysis software XLfit (IDBS, version 5.3.1).

| Substance | KLKB1 pIC50 |
| --- | --- |
| (1R,8S)-N-[(4-carbamimidoyl-2,6-difluorophenyl)methyl]-12-cyclopropyl-15-oxatetracyclo[6.6.1.0^2,7.0^9,14]pentadeca-2,4,6,9,11,13-hexaene-4-carboxamide [Example 24] | 5.99 |
| (1R,8S)-N-[(4-carbamimidoylphenyl)methyl]-12-(2-fluorophenyl)-15-oxatetracyclo-[6.6.1.0^2,7.0^9,14]pentadeca-2,4,6,9,11,13-hexaene-4-carboxamide [Example 44] | 6.75 |
| (±)-methyl 4-{[(6-amino-2,4- dimethylpyridin-3- yl)methyl]carbamoyl}-12- (2,4-difluorophenyl)-15- azatetracyclo[6.6.1.0^2,^7.0^9,1^4] pentadeca-2,4,6,9,11,13- hexaene-15-carboxylate (±)-methyl 4-{[(6-amino-2,4- dimethylpyridin-3-yl)methyl] carbamoyl}-11-(2,4- difluorophenyl)-15-azatetracyclo [6.6.1.0^2,^7.0^9,1^4] pentadeca-2,4,6,9,11,13-hexaene- 15-carboxylate [Example 210] | 4.87 |
